Assay results published in patent US5602176A, “Phenyl carbamate” (priority 1987, dated 1997).

Test system: deoxyglucose (DOG) utilisation in the brain
Assay: Muscarinic and nicotinic effects on brain glucose utilisation (deoxyglucose autoradiography)
Type: in vivo, rat
Settings: 7.5 μmol/kg p.o., initial 30 minutes
Text: Muscarinic and nicotinic effects on brain glucose utilisation
Changes in the functional activity of the CNS are associated with altered deoxyglucose (DOG) utilisation in the brain which can be visualised simultaneously in several brain regions using the autoradiographic method of Sokoloff et al., J. Neurochem. 28, 897 (1977). The administration of cholinergic drugs either direct (muscarinic agonists) or indirect (accumulation of acetylcholine) induces in this model a characteristic "fingerprint" pattern by modifying the regional glucose metabolism.
Male Wistar rats (150-200 g) are used. Drugs are administered at various doses and by different routes (i.v., p.o., i.p.) to animals. [14C]-2-deoxyglucose (125 μC/kg) is injected 45 min. before the animals are sacrificed. The brains are immediately excised, frozen at -80° C. and subsequently cut in slices with a thickness of 20 μm. The optical densities of the radiographic images are measured according to a modification of Sokoloff et al.

SMILES: CCN(C)C(=O)Oc1cccc([C@H](C)N(C)C)c1 [Compound A, (S)-N-ethyl-3-[(1-dimethylamino)ethyl]-N-methyl-phenyl-carbamate]
- effect on DOG utilisation, comparison: more potent than that of compound B
